Results from article doi:10.1101/2023.06.09.544295 (bioRxiv, 2023).

System: primary human macrophages
Assay: Macrophage differentiation assay, cell surface marker expression by flow cytometry
Format: cell-based
Conditions: MFI fold-change normalized to M0; chemerin9 10 ng/mL 72 hours; IFNg 10 ng/ml plus LPS 10 ng/ml; IL-10 10 ng/ml; n=4 donors; Fig. 1a

B1: IL-10: reference signal molecule to induce the M2-like macrophages (protein, UniProt P22301 19-178, looked up)
Interleukin-10: SPGQGTQSENSCTHFPGNLPNMLRDLRDAFSRVKTFFQMKDQLDNLLLKESLLEDFKGYLGCQALSEMIQFYLEEVMPQAENQDPDIKAHVNSLGENLKTLRLRLRRCHRFLPCENKSKAVEQVKNAFNKLQEKGIYKAMSEFDIFINYIEAYMTMKIRN
  HLA-DR expression (in words): downregulation
